These are literature values, as cited in patent US20030171386A1, “Small molecules for the treatment of abnormal cell growth” (Pfizer Inc., priority 2001, published 2003).

The conditions of the data set: cited from earlier work; for dermal toxicity (rash): clinical trials, patients.

For the substance “C-225: Imclone's tailor-made anti-erbB1 monoclonal antibody [Example C-225]”, the “dermal toxicity (rash)” value is on record as “a similar rash was reported”.
In the case of “HERCEPTIN: Genentech's tailor-made monoclonal antibody for the erbB2 receptor tyrosine kinase”, the “dermal toxicity (rash)” value is recorded as “no rash was observed”. Moreover, the “"Black Box" warning” value (marketed antibody) is “cardiomyopathy and hypersensitivity reactions including anaphylaxis”.
